Assay results published in patent publication US20230212180A1, “SUBSTITUTED PYRAZINE COMPOUND, PHARMACEUTICAL COMPOSITION COMPRISING SAME, AND USE THEREOF” (Sichuan Kelun-Biotech Biopharmaceutical Co., Ltd., priority 2020, published 2023).

By UniProt entry, the sequences of proteins in these tests, tags left out.
UniProt Q06124, whole entry: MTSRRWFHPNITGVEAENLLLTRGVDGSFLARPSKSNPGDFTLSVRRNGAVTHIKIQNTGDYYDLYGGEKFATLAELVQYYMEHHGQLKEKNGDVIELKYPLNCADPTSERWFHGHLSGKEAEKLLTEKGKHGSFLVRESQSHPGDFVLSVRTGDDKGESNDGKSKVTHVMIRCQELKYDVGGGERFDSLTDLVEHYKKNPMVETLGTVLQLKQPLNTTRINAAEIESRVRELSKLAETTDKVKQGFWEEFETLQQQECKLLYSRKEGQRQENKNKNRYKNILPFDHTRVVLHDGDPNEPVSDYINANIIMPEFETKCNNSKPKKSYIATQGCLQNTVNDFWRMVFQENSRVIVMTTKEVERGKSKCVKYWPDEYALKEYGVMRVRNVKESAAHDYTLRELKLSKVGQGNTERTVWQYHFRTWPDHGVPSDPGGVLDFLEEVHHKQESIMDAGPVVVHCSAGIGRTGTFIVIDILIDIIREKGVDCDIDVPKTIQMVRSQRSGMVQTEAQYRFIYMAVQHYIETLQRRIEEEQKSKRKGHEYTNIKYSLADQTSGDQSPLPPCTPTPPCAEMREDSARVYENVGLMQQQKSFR
UniProt Q12809, whole entry: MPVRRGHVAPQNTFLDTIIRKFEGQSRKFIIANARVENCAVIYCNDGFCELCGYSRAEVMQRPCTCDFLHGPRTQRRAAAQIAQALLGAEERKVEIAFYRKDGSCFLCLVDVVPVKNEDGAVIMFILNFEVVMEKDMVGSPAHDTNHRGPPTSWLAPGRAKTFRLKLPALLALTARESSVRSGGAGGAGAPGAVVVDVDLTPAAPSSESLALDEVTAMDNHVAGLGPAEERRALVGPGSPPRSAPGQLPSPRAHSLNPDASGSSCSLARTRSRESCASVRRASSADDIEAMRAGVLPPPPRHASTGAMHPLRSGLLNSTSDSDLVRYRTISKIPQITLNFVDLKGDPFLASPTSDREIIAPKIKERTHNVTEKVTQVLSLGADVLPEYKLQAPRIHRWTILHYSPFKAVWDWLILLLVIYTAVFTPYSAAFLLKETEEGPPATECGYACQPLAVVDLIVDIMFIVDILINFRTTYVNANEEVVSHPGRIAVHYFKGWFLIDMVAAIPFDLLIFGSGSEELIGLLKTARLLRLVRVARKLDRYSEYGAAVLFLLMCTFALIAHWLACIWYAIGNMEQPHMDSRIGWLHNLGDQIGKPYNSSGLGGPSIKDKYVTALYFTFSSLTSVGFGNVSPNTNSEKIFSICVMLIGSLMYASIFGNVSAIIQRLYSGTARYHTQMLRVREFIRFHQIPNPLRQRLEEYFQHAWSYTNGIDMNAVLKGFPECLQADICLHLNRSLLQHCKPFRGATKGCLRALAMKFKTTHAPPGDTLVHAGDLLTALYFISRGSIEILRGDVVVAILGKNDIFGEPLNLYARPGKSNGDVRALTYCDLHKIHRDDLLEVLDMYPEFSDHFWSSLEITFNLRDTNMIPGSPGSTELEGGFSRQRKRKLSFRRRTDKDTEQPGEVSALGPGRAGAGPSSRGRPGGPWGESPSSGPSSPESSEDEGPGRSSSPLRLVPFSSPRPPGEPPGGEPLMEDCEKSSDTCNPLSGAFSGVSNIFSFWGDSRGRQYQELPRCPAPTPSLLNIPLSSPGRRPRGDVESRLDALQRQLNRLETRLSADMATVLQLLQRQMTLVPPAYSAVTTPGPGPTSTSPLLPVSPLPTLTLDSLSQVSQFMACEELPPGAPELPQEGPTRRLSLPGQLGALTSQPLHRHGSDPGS

Tests used:
[1] = biological target: recombinant full-length human PTPN11 (SHP2) (Homo sapiens, UniProt Q06124); experiment: Inhibition of in vitro enzyme activity of SHP2 (DiFMUP fluorescence endpoint assay); settings: read-out: IC50 (nM), inhibition of the SHP2 enzyme activity; SHP2 0.5 nM, DiFMUP 200 μM, IRS-1 0.5 μM; 60 min incubation; tested form: trifluoroacetate
Protocol: Test Example 1: Experiment on the Inhibition of In Vitro Enzyme Activity of SHP2 (Protein Phosphatase)
phosphatase: recombinant full-length human PTPN11 (SHP2), active (SignalChem);
substrate: 6,8-difluoro-4-methylumbelliferyl phosphate (DiFMUP) (Invitrogen);
activating peptide: IRS1_pY1172(dPEG8)pY1222 (IRS1) (BPS Bioscience);
terminator: bpv(phen) (bpv) (Abcam).
SHP2 concentration: 0.5 nM;
DiFMUP concentration: 200 μM;
IRS-1 concentration: 0.5 μM;
bpv concentration: 160 μM;
buffer systems: 60 mM Hepes pH 7.2; 75 mM NaCl; 75 mM KCl; 0.05% surfactant P20; 1 mM EDTA; 5 mM DTT;
incubation duration of compound and enzyme: 60 minutes;
reaction time of enzyme and substrate: 30 minutes;
parameters for microplate reader: BMG PHERAstar fluorescence microplate reader at an excitation wavelength of 340 nm and an emission wavelength of 450 nm.
Test group: A mixture of the test compound and the phosphatase SHP2 together with the activating peptide IRS-1 were incubated in the buffer system at room temperature for 60 minutes. The substrate DiFMUP was added to initiate the reaction and incubated at room temperature for 30 minutes. Thereafter, bpv was added to terminate the reaction. The reaction plate was placed in the microplate reader, and the fluorescence intensities of the wells in the plate were measured using an endpoint assay. […]

[2] = tested on: KYSE-520 cell (human esophageal squamous cell carcinoma cell); experiment: Inhibition of the proliferation activity of KYSE-520 cell (CellTiter-Glo); settings: read-out: KYSE-520, IC50; KYSE-520 cell proliferation, 5 days; tested form: trifluoroacetate
Protocol: Test Example 2: Experiment on the Inhibition of the Proliferation Activity of KYSE-520 Cell (Human Esophageal Squamous Cell Carcinoma Cell)
cell: KYSE-520 (JCRB Cell Bank);
kit: CellTiter-Glo® Luminescent Cell Viability Assay Kit (Promega).
inoculation amount of cell: 1500 cells/well;
incubation conditions for compound: 37° C., 5% CO2;
incubation duration: 5 days;
detecting temperature: room temperature;
chemiluminescence detection using the BMG PHERAstar FS reader.
Cells were cultured in a medium containing 10% fetal bovine serum under the culture conditions of 37° C. and 5% CO2. An appropriate amount of cells were plated into a 96-well plate and cultured overnight in an incubator to allow the cells to adhere to the wall. The following day, the medium was removed and a complete medium containing a pre-diluted compound was added and incubated at 37° C. for 5 days. On the fifth day, the detection reagent CellTiter-Glo® was added into each well. Chemiluminescence was adopted to detect the relative luminescence units (RLUs) of the wells.
The result of a well containing cell-free medium, treated with CellTiter-Glo®, was obtained as the blank value. […] The half maximal inhibitory concentration (IC50) of the compound was calculated by fitting the curve according to the four-parameter logistic model.

hERG = hERG (Homo sapiens, UniProt Q12809); experiment: Biochemical assay for hERG inhibition (Predictor hERG Fluorescence Polarization Assay Kit); settings: read-out: IC50 (μM), hERG inhibition assay; competition with affinity tracer 1 nM, 2 hours; tested form: trifluoroacetate
Protocol: Test Example 3: Biochemical Assay for hERG Inhibition
kit: Predictor™ hERG Fluorescence Polarization Assay Kit (ThermoFisher) containing:
Compound E4031 as a positive control;
tracer concentration: 1 nM;
incubation duration: 2 hours;
parameters for microplate reader: BMG PHERAstar FS fluorescence microplate reader.
Test group: The test compounds at different concentrations were added into a microplate containing hERG cell membrane, and the tracer with a high affinity for hERG was then added into each well. The microplate was incubated at 25° C. for 2 hours before detection of the change in fluorescence polarization value (mP) (excitation wavelength: 540 nm; emission wavelength: 590 nm) using a multi-mode microplate reader.
Positive control group: The experimental method for the positive control group was the same as that for the test group, except that the test compound was replaced with 30 μM Compound E4031.
Blank control group: The experimental method for the blank control group was the same as that for the test group, except that the test compound was replaced with the hERG buffer and that the hERG cell membrane was not added.
Based on the data ratios, the percentage inhibition (%) of the compounds of the present disclosure against hERG at different concentrations was calculated and the range of the half maximal inhibitory concentration (IC50) of the compounds was determined. […]

SMILES: C[C@@H]1OCC2(CCN(c3cnc(Sc4ccnc(N5CC(F)(CO)C5)c4Cl)cn3)CC2)[C@@H]1N
- IC50 [1]: 2.2 nM
- IC50 [2]: 640 nM
- IC50 (hERG): > 10 µM
